The entries are a selection whose mix differs from that of the whole data set. The source made the active and inactive calls. Calls come from the whole dose curve; as a rule, active = well fitted inhibition curve with a large enough effect in the polarisation, with a control signal flat; inconclusive = small, poorly fitted or top-dose-only effect, or effect the other way, or a change in a side signal; inactive = no such curve, though single readings can be large or run the other way; the % refers to the polarisation.
Target: Transcriptional regulator ERG (Homo sapiens) (UniProt P11308)
Assay: qHTS for Small Molecule Inhibitors of the ERG Ets/DNA interaction; note: % of control where 0% means no effect
Conditions: fluorescence polarization, His-ERG Ets domain / labelled DNA; at 76.9 µM (top of the series)
Text: The Ets family of proteins is a family of ~30 conserved transcription factors defined by the presence of an ~85 amino acid domain referred to as the Ets domain, which mediates sequence-specific DNA binding to a core DNA element GGAA/T.The Ets family member ERG has been linked to several neoplasms. […] More extensive studies of the effects of over-expression of ERG in prostate cells have recently been carried out and have shown that over-expression of ERG results in increased invasion. […] We will carry out a high throughout screen to identify inhibitors of the interaction between ERG and DNA using a fluorescence polarization (FP) assay with a His-tagged ERG Ets domain and fluorescently-labeled DNA probes to develop small molecule inhibitors of this interaction as probes to test this hypothesis and lay the groundwork for the development of targeted therapies against ERG. NIH Molecular Libraries Probe Production Network [MLPCN] NIH Chemical Genomics Center [NCGC] […]
1.5 ul of protein solution (1 uM ERG domain in 300mM KCl, 50mM Tris-HCl, 1mM EDTA, 1mM DTT, pH 7.5); 20 nl Control plate and compound library plate; 1.5 ul mixture of 5 nM Fluorescein-DNA and 100nM Texas-615-DNA solution in same buffer as above solution; measure fluorescence polarization sequentially for fluorescein (Excitation = 480 nm, Emission = 535s, 535p nm) and Texas red (Excitation = 555 nm, Emission = 632s, 632p nm).

Sequences of proteins named here, by UniProt entry; tags and fusion partners are left off.
UniProt P11308, whole entry: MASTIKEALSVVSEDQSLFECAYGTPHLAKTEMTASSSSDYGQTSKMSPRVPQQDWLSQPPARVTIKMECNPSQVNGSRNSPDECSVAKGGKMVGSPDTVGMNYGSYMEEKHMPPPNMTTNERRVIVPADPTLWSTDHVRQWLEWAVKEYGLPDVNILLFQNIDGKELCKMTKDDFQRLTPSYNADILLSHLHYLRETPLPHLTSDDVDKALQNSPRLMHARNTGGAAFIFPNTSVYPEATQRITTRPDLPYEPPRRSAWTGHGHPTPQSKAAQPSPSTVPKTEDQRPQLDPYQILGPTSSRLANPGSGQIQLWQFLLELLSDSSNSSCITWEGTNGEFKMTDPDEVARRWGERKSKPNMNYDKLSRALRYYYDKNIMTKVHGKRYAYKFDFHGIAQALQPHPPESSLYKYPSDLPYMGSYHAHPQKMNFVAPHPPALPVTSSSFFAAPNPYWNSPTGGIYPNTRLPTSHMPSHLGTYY

SMILES | FP activity, negative = inhibition
CCC(=O)N(c1ccccc1)C1(COC)CCN(CCn2nnn(CC)c2=O)CC1 | inactive: -27%
CCC(=O)N(c1ccccc1)C1(COC)CCN(CCc2cccs2)CC1 | inactive: 7.05%

Source: PubChem BioAssay AID624246 (National Center for Advancing Translational Sciences (NCATS), 2012)
